Source: PMC9489631 (Journal of molecular biology, 2022)

Target: TAF-Iβ (Template activating factor-Iβ), full-length (UniProt Q01105-2)
Experiment: ITC

Kd: ~50 nM
stoichiometry N: 1 H1.10 per TAF-Iβ monomer
B1: linker histone H1.10, full-length (natural protein, human, UniProt Q92522 1-213, looked up)
chain: MSVELEEALPVTTAEGMAKKVTKAGGSAALSPSKKRKNSKKKNQPGKYSQLVVETIRRLGERNGSSLAKIYTEAKKVPWFDQQNGRTYLKYSIKALVQNDTLLQVKGTGANGSFKLNRKKLEGGGERRGAPAAATAPAPTAHKAKKAAPGAAGSRRADKKPARGQKPEQRSHKKGAGAKKDKGGKAKKTAAAGGKKVKKAAKPSVPKVPKGRK
